# Laboratory results published in patent US7528226B2, “TGFβ1-inhibitor peptides” (Rojecto de Biomedicina Cima S.L., priority 1998, dated 2009).
# Test system: type I, II and III cell receptors of TGFβ1
# Test: Affinity labelling: inhibition of binding of 125I-TGFβ1 to its cell receptors on MV-1-Lu cells
# Design: species or system human
# Conditions: preincubation with peptide at 10^6 times the molar concentration of 125I-TGFβ1
# Protocol: The MV-1-Lu cells were removed from the culture flasks incubating them at 37° C. for 10 minutes, with 10 ml of solution 1 (128 mM NaCl, 5 mM KCl, 25 mM 4-(2-hydroxyethyl)-1-piperazine ethanesulphonate at pH 7.5, 5 mM glucose and 1 mM EDTA). The cells thus removed were resuspended in solution 2 (128 Mm NaCl, 5 mM KCl, 50 mM 4-(2-hydroxyethyl)-1-piperazine ethanesulphonate at pH 7.5, 1.2 mM CaCl2, 1.2 mM MgSO4 and 5 mg/ml BSA) and were collected by centrifugation at 1000×g for 5 minutes. After centrifugation the cells were resuspended in solution 2 at a concentration of 10^6 cells/ml.
# From this cell suspension, 0.5 ml aliquots were made in 24-well plates (Greiner GmbH, Frickenhausen, Germany), the peptides were added, in 50 μl of a 0.8 mg/ml solution, then this was incubated for 2 hours at 4° C. with stirring. Next, ^125I-TGFβ1 (2 μCi) was added to a final concentration of 277.2 pM (^125I-TGFβ1 human recombinant 800-2200 Ci/mmol, Amersham Life Science, Buckinghamshire, UK) and this was incubated for a further two hours at 4° C. with stirring.
# After incubation, the cells were transferred to a centrifuge tube and were centrifuged cold at 12,000×g for 1 minute. […]
smiles,measurement,value
CC[C@H](C)[C@H](NC(=O)[C@H](Cc1ccc(O)cc1)NC(=O)[C@@H]1CCCN1C(=O)[C@H](CS)NC(=O)[C@@H]1CCCN1C(=O)CNC(=O)[C@H](CC(C)C)NC(=O)[C@H](CS)NC(=O)[C@H](Cc1ccccc1)NC(=O)[C@H](CC(N)=O)NC(=O)[C@H](C)NC(=O)[C@H](Cc1c[nH]cn1)NC(=O)[C@H](Cc1ccc(O)cc1)NC(=O)CNC(=O)[C@H](CCCCN)NC(=O)[C@@H]1CCCN1C(=O)[C@H](CCC(=O)O)NC(=O)[C@@H](N)Cc1c[nH]cn1)C(=O)N[C@@H](Cc1c[nH]c2ccccc12)C(=O)N[C@@H](CO)C(=O)N[C@@H](CC(C)C)C(=O)N[C@@H](CC(=O)O)C(=O)N[C@H](C(=O)O)[C@@H](C)O [P29],inhibition of the binding of 125I-TGFβ1 to the cell receptors,inhibition of the binding
